Amino acid sequences for entries named in this document (tags omitted).
UniProt P19643, whole entry: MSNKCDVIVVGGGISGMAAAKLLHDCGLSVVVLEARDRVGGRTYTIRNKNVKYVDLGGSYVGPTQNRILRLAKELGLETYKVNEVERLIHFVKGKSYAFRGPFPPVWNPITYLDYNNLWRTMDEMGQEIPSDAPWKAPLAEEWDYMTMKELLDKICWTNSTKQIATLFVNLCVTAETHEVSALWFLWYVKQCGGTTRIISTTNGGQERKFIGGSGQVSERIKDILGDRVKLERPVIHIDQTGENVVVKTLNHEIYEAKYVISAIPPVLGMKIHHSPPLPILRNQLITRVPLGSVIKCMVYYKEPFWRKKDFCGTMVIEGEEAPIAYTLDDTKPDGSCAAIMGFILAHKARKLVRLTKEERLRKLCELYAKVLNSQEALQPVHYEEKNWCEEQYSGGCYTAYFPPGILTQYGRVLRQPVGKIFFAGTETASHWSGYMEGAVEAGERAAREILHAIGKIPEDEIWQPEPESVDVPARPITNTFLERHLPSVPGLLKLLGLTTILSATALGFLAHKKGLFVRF
UniProt P21396, whole entry: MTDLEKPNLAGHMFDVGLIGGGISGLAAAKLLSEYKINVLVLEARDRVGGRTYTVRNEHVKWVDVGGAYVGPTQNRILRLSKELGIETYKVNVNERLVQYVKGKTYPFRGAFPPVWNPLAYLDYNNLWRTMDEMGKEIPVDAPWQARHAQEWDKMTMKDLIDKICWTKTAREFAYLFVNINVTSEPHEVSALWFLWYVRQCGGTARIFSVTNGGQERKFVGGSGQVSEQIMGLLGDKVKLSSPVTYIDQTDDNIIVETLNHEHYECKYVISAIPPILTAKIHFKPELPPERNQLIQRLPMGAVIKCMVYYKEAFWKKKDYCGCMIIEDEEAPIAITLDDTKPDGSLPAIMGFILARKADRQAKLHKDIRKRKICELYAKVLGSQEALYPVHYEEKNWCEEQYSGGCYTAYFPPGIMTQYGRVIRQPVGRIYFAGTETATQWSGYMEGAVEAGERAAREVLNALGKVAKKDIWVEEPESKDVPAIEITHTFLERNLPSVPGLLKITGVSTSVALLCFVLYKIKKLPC

The target of one assay is MAO-B (Rattus norvegicus, UniProt P19643). As to the kind of experiment: Inhibition of MAO activity in vitro, PEA as substrate. It is filed as biochemical. The arrangement: The MAO enzyme source was a homogenate of rat brain in 0.3M sucrose; from tissue; host or cells: rat brain homogenate, 600 g supernatant. The following applies: MAO-B Inhibition In vitro IC50, rat brain homogenate. As to the method:
(§1) Substrate concentrations used were 50 μM (PEA) and 1 mM (5-HT).
For `CCCN(C)C(=O)Oc1ccc2c(c1)C(N)CC2` (stereo not drawn) [Compound 2], the half-inhibitory concentration (IC50) – broadly, the concentration needed to halve the response being measured – is greater than 1000 µM.
The same measure, in the same setting: the value for `CNC1CCc2ccc(OC(=O)N(C)C)cc21` (stereo not drawn) [Compound 8] was greater than 1000 µM; that for `CCN(C)C(=O)Oc1ccc2c(c1)C(NC)CC2` (stereo not drawn) [Compound 10] was greater than 1000 µM.
The same measure, in the same setting: the figure for `CN(C)C(=O)Oc1ccc2c(c1)C(N(C)C)CC2` (stereo not drawn) [Compound 12] is greater than 1000 µM.
On the same count and under the same terms, the value for `C#CCNC1CCc2cccc(OC(=O)N(C)CC)c21` (stereo not drawn) [Compound 33] was greater than 1000 µM.

The target of a further assay is MAO-A (Rattus norvegicus, UniProt P21396). As to the kind of experiment: Inhibition of MAO activity in vitro, 5-HT as substrate. Particulars: MAO-A Inhibition In vitro IC50, rat brain homogenate, 5-HT substrate. It is filed as biochemical. The arrangement: The MAO enzyme source was a homogenate of rat brain in 0.3M sucrose; from tissue; host or cells: rat brain homogenate, 600 g supernatant. Here is the method:
as §1
With `CN(C)C(=O)Oc1ccc2c(c1)C(N(C)C)CC2` (stereo not drawn) [Compound 12], the IC50 was 130 µM.
